Reference: ChEMBL document CHEMBL5614410, “Design, Synthesis, and Evaluation of p53Y220C Acetylation Targeting Chimeras (AceTACs)” (J Med Chem, 2024)

Test system: CREB-binding protein/Histone acetyltransferase p300/Cellular tumor antigen p53 (Homo sapiens), P04637+Q09472+Q92793 [Y220C]
Test: AceTAC activity at FLAG-tagged p53Y220C mutant (unknown origin) expressed in human NCI-H1299 cells expressing p300/CBP assessed as fold increase in p53 acetylation at lysine 382 residue at 10 uM incubated for 24 hrs by western blot analysis relative to control
Assay type: cell-based
How it was run: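 NCI-H1299 (p53Y220C) cells were exposed to 1, 3 and 10 μM for 24 h, then Western blotted. The K382ac signal was normalized to total p53Y220C and quantified from two independent experiments (±SD), relative to DMSO.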

CCn1c2ccc(CNCCOCCOCCOCCC(=O)NCCOc3ccc(CCc4nc5cc(-c6c(C)noc6C)ccc5n4CCN4CCOCC4)cc3F)cc2c2ccc(-c3cc(C)cs3)cc21
fold change (FC): 6
